Data: patent US20250115583A1, “BICYCLIC INDAZOLE GLUCOCORTICOID RECEPTOR ANTAGONISTS” (Corcept Therapeutics Incorporated, priority 2021, published 2025)

Chains of the proteins cited; added tags and fusions are not shown.
UniProt P04150, whole entry: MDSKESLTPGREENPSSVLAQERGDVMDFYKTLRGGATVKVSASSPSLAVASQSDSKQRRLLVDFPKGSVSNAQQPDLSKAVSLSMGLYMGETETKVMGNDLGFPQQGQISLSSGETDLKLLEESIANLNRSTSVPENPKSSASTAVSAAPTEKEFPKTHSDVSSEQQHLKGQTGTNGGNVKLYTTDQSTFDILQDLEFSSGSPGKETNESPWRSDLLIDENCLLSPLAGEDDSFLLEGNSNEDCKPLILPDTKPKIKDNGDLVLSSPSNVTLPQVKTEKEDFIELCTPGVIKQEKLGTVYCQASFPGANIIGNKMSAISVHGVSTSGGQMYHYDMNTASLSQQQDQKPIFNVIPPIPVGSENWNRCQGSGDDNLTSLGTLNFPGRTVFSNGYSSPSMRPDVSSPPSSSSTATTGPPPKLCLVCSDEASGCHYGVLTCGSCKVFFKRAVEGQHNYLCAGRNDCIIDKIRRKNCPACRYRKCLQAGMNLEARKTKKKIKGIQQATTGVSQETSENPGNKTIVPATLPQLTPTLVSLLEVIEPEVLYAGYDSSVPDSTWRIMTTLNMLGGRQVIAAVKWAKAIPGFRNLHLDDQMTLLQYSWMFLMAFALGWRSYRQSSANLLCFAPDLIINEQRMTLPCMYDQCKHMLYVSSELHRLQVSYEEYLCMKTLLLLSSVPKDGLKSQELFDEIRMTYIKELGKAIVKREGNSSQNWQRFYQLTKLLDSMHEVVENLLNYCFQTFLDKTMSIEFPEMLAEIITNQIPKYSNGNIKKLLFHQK

These compounds were tested against glucocorticoid receptor (Homo sapiens (Human), UniProt P04150) (assay: HepG2 TAT assay: inhibition of dexamethasone-induced tyrosine aminotransferase (TAT) activity). Conditions: read-out: HepG2 TAT Ki; HepG2 cells, challenge of 100 nM dexamethasone, 18-24 hr; IC50 converted to Ki by Cheng and Prusoff equation.
Assay type: cell-based

Structure (SMILES)	Ki
Cc1cc2c(cnn2-c2ccc(F)cc2)cc1[C@@]12CN(S(=O)(=O)c3cnn(C)n3)C[C@@H]1[C@H]2c1cccc(C(F)(F)F)c1 (relative stereo)	200 nM
Cc1cc2c(cnn2-c2ccc(F)cc2)cc1[C@@]12CN(S(=O)(=O)c3cnn(C)n3)C[C@@H]1[C@H]2c1ccc(C(F)(F)F)cc1 (relative stereo)	50 nM
Cc1cc2c(cnn2-c2ccc(F)cc2)cc1[C@@]12CN(S(=O)(=O)c3cnn(C)n3)C[C@@H]1[C@@H]2c1ccc(C(F)(F)F)cc1 (relative stereo)	130 nM
Cc1cc2c(cnn2-c2ccc(F)cc2)cc1[C@@]12CN(S(C)(=O)=O)C[C@@H]1[C@H]2c1cccc(C(F)(F)F)c1 (relative stereo)	200 nM
Cc1cc2c(cnn2-c2ccc(F)cc2)cc1[C@@]12CN(S(=O)(=O)c3cnn(C)n3)C[C@@H]1[C@@H]2c1cccc(C(F)(F)F)c1 (relative stereo)	30 nM
